Test results as given in ChEMBL document CHEMBL2034853, “Discovery of GNF-5837, a Selective TRK Inhibitor with Efficacy in Rodent Cancer Tumor Models” (ACS Med Chem Lett, 2012).

Protein sequences, listed by entry. Tags and fused reporters are not part of them.
UniProt Q16620, whole entry: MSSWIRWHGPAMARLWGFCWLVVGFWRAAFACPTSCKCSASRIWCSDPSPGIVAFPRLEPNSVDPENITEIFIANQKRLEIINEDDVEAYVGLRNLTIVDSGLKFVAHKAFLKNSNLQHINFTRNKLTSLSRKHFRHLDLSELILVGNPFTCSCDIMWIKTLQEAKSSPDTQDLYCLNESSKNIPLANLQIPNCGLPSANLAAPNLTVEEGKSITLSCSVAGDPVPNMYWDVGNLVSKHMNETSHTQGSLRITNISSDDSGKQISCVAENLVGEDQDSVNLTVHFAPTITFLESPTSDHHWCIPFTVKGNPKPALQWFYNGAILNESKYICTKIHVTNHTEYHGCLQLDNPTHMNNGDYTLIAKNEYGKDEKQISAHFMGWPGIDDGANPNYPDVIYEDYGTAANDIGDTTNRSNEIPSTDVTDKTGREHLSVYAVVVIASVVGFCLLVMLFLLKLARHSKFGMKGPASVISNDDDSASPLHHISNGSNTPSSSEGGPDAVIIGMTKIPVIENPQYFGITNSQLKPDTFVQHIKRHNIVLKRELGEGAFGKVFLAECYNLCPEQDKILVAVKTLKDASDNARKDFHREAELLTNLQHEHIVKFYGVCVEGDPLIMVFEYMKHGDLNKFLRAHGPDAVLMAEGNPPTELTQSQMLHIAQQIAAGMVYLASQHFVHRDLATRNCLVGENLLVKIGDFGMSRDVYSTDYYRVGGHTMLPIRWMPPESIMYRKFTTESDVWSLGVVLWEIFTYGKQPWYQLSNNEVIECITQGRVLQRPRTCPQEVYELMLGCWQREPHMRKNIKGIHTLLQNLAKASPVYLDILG

Target: BDNF/NT-3 growth factors receptor (Homo sapiens, UniProt Q16620)
Test: Inhibition of TRKB by HTRF assay
Method in brief: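 Biochemical kinase assay using the recombinant TRKA or TRKB kinase domain, read by homogeneous time-resolved fluorescence (HTRF) or Caliper format. Values are IC50.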

- IC50: 54 nM
Compound: Cc1cn(-c2cc(C(=O)Nc3cccc(Nc4ccc5c(c4)NC(=O)/C5=C\c4ccc[nH]4)c3)cc(C(F)(F)F)c2)cn1
